# Test results reported in patent US10213415B2, “Compounds as opioid receptor modulators” (JANSSEN PHARMACEUTICA NV, priority 2004, dated 2019).
# Chains of the proteins cited; added tags and fusions are not shown.
# UniProt P33533, whole entry: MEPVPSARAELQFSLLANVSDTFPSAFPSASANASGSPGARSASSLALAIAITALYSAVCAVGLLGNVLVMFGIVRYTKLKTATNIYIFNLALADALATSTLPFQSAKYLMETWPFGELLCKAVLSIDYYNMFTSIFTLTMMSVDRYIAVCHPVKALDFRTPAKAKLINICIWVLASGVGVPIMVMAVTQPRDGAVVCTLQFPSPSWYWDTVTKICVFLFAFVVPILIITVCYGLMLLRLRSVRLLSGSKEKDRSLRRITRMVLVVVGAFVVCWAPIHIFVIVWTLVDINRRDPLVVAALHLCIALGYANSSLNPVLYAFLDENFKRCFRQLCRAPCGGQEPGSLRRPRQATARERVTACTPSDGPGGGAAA
# UniProt P33535, whole entry: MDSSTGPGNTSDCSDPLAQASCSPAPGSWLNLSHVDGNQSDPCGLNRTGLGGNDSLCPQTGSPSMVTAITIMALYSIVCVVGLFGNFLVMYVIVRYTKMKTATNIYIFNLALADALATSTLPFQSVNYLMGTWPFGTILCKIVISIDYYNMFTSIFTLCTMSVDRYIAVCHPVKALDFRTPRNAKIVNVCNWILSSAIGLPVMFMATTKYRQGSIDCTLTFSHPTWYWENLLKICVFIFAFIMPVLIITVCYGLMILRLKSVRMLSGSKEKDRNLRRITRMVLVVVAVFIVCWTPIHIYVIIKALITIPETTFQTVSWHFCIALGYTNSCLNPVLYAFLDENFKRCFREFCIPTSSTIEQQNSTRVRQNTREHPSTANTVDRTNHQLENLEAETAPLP
# UniProt P35372, whole entry: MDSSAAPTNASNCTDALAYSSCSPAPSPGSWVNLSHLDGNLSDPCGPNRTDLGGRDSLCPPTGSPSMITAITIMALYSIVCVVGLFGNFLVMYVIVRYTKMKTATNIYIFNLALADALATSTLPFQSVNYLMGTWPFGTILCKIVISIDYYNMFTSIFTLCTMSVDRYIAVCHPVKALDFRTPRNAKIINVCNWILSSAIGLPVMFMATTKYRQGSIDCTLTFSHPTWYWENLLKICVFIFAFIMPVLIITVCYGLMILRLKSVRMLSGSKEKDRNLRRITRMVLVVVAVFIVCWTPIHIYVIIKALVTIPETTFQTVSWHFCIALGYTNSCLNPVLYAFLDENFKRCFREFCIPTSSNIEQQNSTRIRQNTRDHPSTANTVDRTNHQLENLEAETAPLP
# pEC50, pKi: −log10 of the molar value.
# Experiments:
# delta opioid receptor = delta opioid receptor (Rattus norvegicus, UniProt P33533); experiment: Rat Brain Delta Opioid Receptor Binding Assay ([3H]DPDPE); details: read-out: r Ki δ, rat forebrain membranes, margin of error 10-20%
# Procedure: Male, Wistar rats (150-250 g, VAF, Charles River, Kingston, N.Y.) are killed by cervical dislocation, and their brains removed and placed immediately in ice cold Tris HCl buffer (50 mM, pH 7.4). The forebrains are separated from the remainder of the brain by a coronal transection, beginning dorsally at the colliculi and passing ventrally through the midbrain-pontine junction. After dissection, the forebrains are homogenized in Tris buffer in a Teflon® glass homogenizer. The homogenate is diluted to a concentration of 1 g of forebrain tissue per 80 mL Tris and centrifuged at 39,000×g for 10 min. The pellet is resuspended in the same volume of Tris buffer containing 5 mM MgCl2 with several brief pulses from a Polytron homogenizer. This particulate preparation is used for the delta opioid binding assays. Following incubation with the delta selective peptide ligand ˜4 nM [^3H]DPDPE at 25° C. for 2.5 h in a 96-well plate with total volume of 1 mL, the plate contents are filtered through Wallac filtermat B sheets on a Tomtec 96-well harvester. The filters are rinsed three times with 2 mL of 10 mM HEPES (pH 7.4), and dried in a microwave oven 2 min twice. To each sample area 2×50 μL of Betaplate Scint scintillation fluid (LKB) is added and analyzed on a LKB (Wallac) 1205 BetaPlate liquid scintillation counter.
# The data are used to calculate either the % inhibition compared to control binding (when only a single concentration of test compound is evaluated) or a Ki value (when a range of concentrations is tested). % inhibition is calculated as: [(total dpm−test compound dpm)/(total dpm−nonspecific dpm)]*100. Kd and Ki values were calculated using GraphPad PRISM data analysis program.
# mu opioid receptor = mu opioid receptor (Rattus norvegicus, UniProt P33535); experiment: Rat Brain Mu Opioid Receptor Binding Assay (and Version 2a, [3H]DAMGO); details: read-out: r Ki μ, rat forebrain membranes, margin of error 10-20%
# [1] = molecular target: mu opioid receptor (CHO-hMOR cell membranes) (Homo sapiens, UniProt P35372); experiment: Mu Opioid Receptor Functional Assay: [35S]GTPγS Binding in CHO-hMOR Cell Membranes, Versions 1 and 2
# Procedure: CHO-hMOR cell membranes were purchased from Receptor Biology, Inc. (Baltimore, Md.). About 10 mg/ml of membrane protein was suspended in 10 mM TRIS-HCl pH 7.2, 2 mM EDTA, 10% sucrose, and the suspension kept on ice. One ml of membranes was added to 15 ml cold binding assay buffer containing 50 mM HEPES, pH 7.6, 5 mM MgCl2, 100 mM NaCl, 1 mM DTT and 1 mM EDTA. The membrane suspension was homogenized with a Polytron and centrifuged at 3,000 rpm for 10 min. The supernatant was then centrifuged at 18,000 rpm for 20 min. The pellet was resuspended in 10 ml assay buffer with a Polytron.
# The membranes were preincubated with wheat germ agglutinin coated SPA beads (Amersham) at 25° C. for 45 min in the assay buffer. The SPA bead (5 mg/ml) coupled membranes (10 μg/ml) were then incubated with 0.5 nM [^35S]GTPγS in the assay buffer. […] A range of concentrations of receptor agonists was used to stimulate [^35S]GTPγS binding. Both basal and non-specific binding was tested in the absence of agonist; non-specific binding determination included 10 μM unlabeled GTPγS.
# Compounds were tested for function as antagonists by evaluating their potential to inhibit agonist-stimulated GTPγS binding. Radioactivity was quantified on a Packard TopCount. The following parameters were calculated:
# [formula] % Inhibition=(% stimulation by 1 μM SNC80−% stimulation by 1 μM SNC80 in presence of test compound)×100/(% Stimulation by 1 μM SNC80−100)
# EC50 values were calculated using GraphPad Prism.
# male CD-1 mice [2] = experiment: In Vivo Assay: Stress-Induced Entire GI Tract Transit (MEGIT, MEGIT-NES, MEGIT-RS); parameters: species or system mouse; details: dose 20 p.o., restraint stress
# Procedure: Methods: The animals used in these studies are male CD-1 mice, ave. wt. ˜30 g. Procedure: Mice were housed in LAM under 12 h/12 h light/dark cycle, food & water ad lib. On the day before the experiments, the mice assigned to the “acclimated” (non-stressed) control group were placed into individual wire mesh-bottomed cages, provided food and water ad lib. The acclimated control group was in this new environment for 16-18 hrs prior to beginning the test. On the day of the experiment, mice assigned to experimental groups were housed in home cages were transported to procedure room and remain in their home cages until the start of the transit portion of the study. […] One hour after administration of carmine, the fecal pellet output of each animal was recorded. […] The number of mice that excreted a carmine-containing fecal pellet at the end of each hour post carmine administration was recorded, until all mice had excreted carmine in a fecal pellet or the end of 6 hrs post carmine administration, whichever occurred first. […] The mouse entire GI tract (MEGIT) transit test can thus be done in mice that are all acclimated (non-stressed), in which case the data are expressed as % control (vehicle only), or in mice that are exposed to NES or RS, in which cases the data are expressed as % of the vehicle treated NES or RS group.
# male CD-1 mice [3] = experiment: In Vivo Assay: Upper GI Tract Transit (MUGIT); details: dose 30 (mg), p.o.
# Procedure: Methods: The animals used in these studies were male CD-1 mice, ave. wt. ˜30 g. Mice were housed under 12 h/12 h light/dark cycle, food & water ad lib. On the day of the experiment mice were assigned to experimental groups, including one vehicle-only group (=control). At 30 min before administration of carmine dye, animals were dosed with vehicle or vehicle-plus-compound, mice were returned to their home cages after drug administration. After administration of carmine, the animals were either returned to their home cages (non-stressed) or individually placed in the same metal cages as used in the fecal output or entire GI tract transit to induce a novel environment stress. One hour after administration of carmine, mice were sacrificed by cervical dislocation, the abdomen opened midventrally, the small intestine from pylorus to cecum was removed, the mesentery divided in order to lay the intestine straight & flat—without stretching. The total length of intestine and the length of carmine-dyed intestine were measured in order to determine the percent of the upper GI tract over which transit had occurred as follows: {(Length of carmine-dyed intestine)/(Total length of intestine)}×100=% upper GI transit. The data expressed were group means±SD (or s.e.m.) and data expressed as % of control.
smiles,measurement,setting,value
C[C@@H](c1nc(-c2ccccc2)c[nH]1)N(Cc1cccc(C(=O)O)c1)C(=O)[C@@H](N)Cc1ccc(C(N)=O)cc1,pKi,delta opioid receptor,8.99
same,pKi,mu opioid receptor,8.86
same,pEC50,"[1]; read-out: MOR GTP binding assay v2 EC50, version 2",7.25
same,MOR GTP binding assay_v2 (% I),"[1]; version 2, % inhibition of agonist-stimulated GTPγS binding",6.61%
same,MEGIT-RS entire GI transit 5 hr (% RS),male CD-1 mice [2],112.5 % RS
same,upper GI transit (% ctrl),male CD-1 mice [3],96.5 % ctrl
